From ChEMBL document CHEMBL1151960, “(Nitrooxyacyloxy)methyl esters of aspirin as novel nitric oxide releasing aspirins” (J Med Chem, 2009)

How the values were obtained:
[1] = tested on: Aorta; experiment: Vasodilatory activity in Wistar rat endothelium-denuded thoracic aortic ring assessed as inhibition of phenylephrine-induced contraction […]; details: strain Wistar
[2] = tested on: Aorta; experiment: Vasodilatory activity in Wistar rat endothelium-denuded thoracic aortic ring assessed as inhibition of phenylephrine-induced contraction at 100 uM preincubated for 30 mins before phenylephrine addition in presence of 1 uM 1H-[1,2,4]oxadiazolo[4,3-a]quinoxalin-1-one; design: scale not given: the % may be the effect or the level left; details: strain Wistar

Row | Compound | EC50 [1] [µM] | Activity [2] [%]
1 | O=C(O)CCCCC(CO[N+](=O)[O-])O[N+](=O)[O-] (stereo not drawn) | 6.8 | < 50
2 | O=C(O)CCCC(CO[N+](=O)[O-])O[N+](=O)[O-] (stereo not drawn) | 5.8 | 
